In PubChem BioAssay AID1469 (National Center for Advancing Translational Sciences (NCATS), 2008):
Several values for one entry are separate records, joined by “and”; a condition that tells them apart may be missing. Identical values can stand only once. The entries are a selection whose mix differs from that of the whole data set. Activity calls are given as the source filed them. Calls come from the whole dose curve; as a rule, active = well fitted inhibition curve with a large enough effect; inconclusive = small, poorly fitted or top-dose-only effect, or effect the other way; inactive = flat fitted curve, though single readings scatter.

By UniProt entry, the sequences of proteins in these tests, tags left out.
UniProt P10828, whole entry: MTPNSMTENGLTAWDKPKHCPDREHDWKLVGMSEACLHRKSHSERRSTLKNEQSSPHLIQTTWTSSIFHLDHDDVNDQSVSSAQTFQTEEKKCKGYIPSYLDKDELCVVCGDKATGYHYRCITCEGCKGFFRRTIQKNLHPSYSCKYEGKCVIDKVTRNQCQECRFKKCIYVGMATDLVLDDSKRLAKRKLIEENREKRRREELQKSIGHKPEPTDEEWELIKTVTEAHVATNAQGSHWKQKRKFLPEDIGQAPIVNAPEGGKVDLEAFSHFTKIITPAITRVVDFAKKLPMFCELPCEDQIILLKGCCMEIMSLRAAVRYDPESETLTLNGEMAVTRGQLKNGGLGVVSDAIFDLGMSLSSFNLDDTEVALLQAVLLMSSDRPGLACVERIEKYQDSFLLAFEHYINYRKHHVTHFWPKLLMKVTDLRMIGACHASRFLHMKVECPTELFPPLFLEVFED

Biological target: Thyroid hormone receptor beta (Homo sapiens) (UniProt P10828)
Assay: qHTS for Inhibitors of the Interaction of Thyroid Hormone Receptor and Steroid Receptor Coregulator 2;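 note: plate controls were bound peptide for no effect and peptide without receptor for full effect; nearly all actives have a fitted effect of over 50% in size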
Conditions: TRbeta-SRC2 peptide binding, fluorescence polarization, receptor liganded with 1 µM T3
Source text: NIH Molecular Libraries Probe Production Network [MLPCN]
NIH Chemical Genomics Center [NCGC]
Assay Provider: R. Kip Guy, St. Jude Children's Research Hospital
Thyroid receptor (TR) regulates many homeostatic processes including basal metabolism, cardiovascular function, body weight, and lipid trafficking. TR modulators are potential therapeutics for obesity and hyperlipidemias but current thyroid analogs have undesirable side effects, particularly cardiac stimulation. To identify inhibitors that specifically prevent the interaction of TR with the steroid receptor coregulator 2 (SRC2), a fluorescence polarization assay was screened. This assay detects interaction of the ligand-binding domain of human TRb with a Texas Red labeled SRC2 peptide, corresponding to a 20 amino acid region of the nuclear receptor interaction domain (Arnold et al., 2006). Small molecule inhibitors that block the interaction of TR and SRC2 are detected by a decrease in fluorescence polarization.
Arnold, L. A.; Estebanez-Perpina, E.; Togashi, M.; Shelat, A.; Ocasio, C. A.; McReynolds, A. C.; Nguyen, P.; Baxter, J. D.; Fletterick, R. J.; Webb, P.; Guy, R. K. A high-throughput screening method to identify small molecule inhibitors of thyroid hormone receptor coactivator binding. Sci STKE 2006, p 13.
NCGC Assay Protocol Summary:
For screening, 5 uL/well 0.6 uM TRb and 20 nM SRC2 Texas Red in protein buffer (20mM Tris hydrochloride, 100mM NaCl, 10% glycerol, 1mM EDTA, 0.01% NP-40, 1mM DTT, 1uM T3 and 5% DMSO) was dispensed into black solid 1536-well plates (Grenier) using a solenoid-based dispenser. Following transfer of 23 nL compound or DMSO vehicle by a pin tool, the plates were centrifuged 15 s at 1000 RPM and incubated 5 hr at ambient temperature. […] Data were normalized to unbound (all components except TRb) and bound SRC2 Texas Red controls. In this assay, we provide % activity data for each concentration as well as potencies for the active compounds.
Keywords: NIH Roadmap, MLPCN, MLI, MLSMR, qHTS, NCGC, qHTS, thyroid hormone receptor, steroid receptor coactivator, fluorescence polarization

Row | SMILES | activity change, negative = inhibition (at 106 µM (top of the series)) | activity change, negative = inhibition (at 201 µM (top of the series))
1 | O=[N+]([O-])C(Cl)(Cl)Cl | inactive: 1.22% | inactive: 1.18%
2 | CN(CCCl)CCCl | inactive: 8.54% and inactive: 7.74% | –
